Test results as given in PMC10586543 (Advanced functional materials, 2023).

How the values were obtained:
[1] = Urine accumulation at 1 h post-injection in uninjured mice; format: in vivo, mouse (C57BL/6J); conditions: i.v., 50 nmol kg^−1, ELISA, n = 4
[2] = Blood circulation half-life in uninjured mice; format: in vivo, mouse (C57BL/6J); conditions: i.v., 50 nmol kg^−1, ELISA, %ID

Biotin-GGSGG-K(5FAM)-QEVYGAMP-K(CPQ2)-C-NH2 [calpain substrate peptide]
peptide recovered from urine at 1 h post-injection [1]: greater majority of peptide was recovered from the urine
peptide remaining in blood circulation at 1 h post-injection [2]: ~ 5%
